Reference: patent publication US20250327027A1, “METHODS TO GENERATE ENHANCED TUMOR INFILTRATING LYMPHOCYTES THROUGH MICROFLUIDIC DELIVERY” (STEMCELL TECHNOLOGIES CANADA INC., priority 2021, published 2025)
“And” between values parts separate entries of the source, which are not always exact repeats. Equal entries are not always repeated.

Experiments:
[1] = tested on: melanoma and colorectal TILs; assay: Post thaw analysis of cryopreserved squeeze processed TILs (effect of DMSO and HSA); type: cell-based
Method: To evaluate whether freeze-thaw (including any effect from one or more of the cryopreservatives) has an effect on the squeeze processed TILs described herein, the following methods were used and the mRNA translation and phenotypic expression were assessed. Briefly, cryopreserved, squeezed melanoma and colorectal TILs were thawed and resuspended in CTS OpTmizer media. Post thaw cell recovery and viability were measured via NC-200. Cells were plated in tissue culture-treated plates and incubated for 4, 24 hours, and 8 days in a 37° C. incubator. The TILs were squeezed were assessed at each time point including t=0 (immediately post thaw) by flow cytometry for viability, surface levels of mbIL-2 and mbIL-12, and phenotypic markers such as CCR7, CD45RO, CD62L, CD127, KLRG-1, CD25, CD69, CD39, CD103, and CD25.
To assess the potential impact from DMSO, the following TILs were formulated in varying concentrations of DMSO (i.e., 0%, 1.25%, 2.5%, and 5%): (1) TILs squeeze processed with mRNA encoding membrane-bound LL-2 and mRNA encoding IL-12; and (2) non-squeeze processed TILs. Each of the formulated samples also contained 5% human serum albumin. Then, the TILs were cryopreserved and subsequently thawed as described above.
Each of these formulated samples contained 5% DMSO. Then, the TILs were cryopreserved and subsequently thawed as described above.

TILs [2] = assay: Effect of anti-CD28 on TIL expansion (melanoma tumor); type: cell-based
Method: To assess the effect that anti-CD28 stimulation has on during the initial TIL expansion and culturing, the following methods were used. Briefly, freshly resected melanoma tumor was rinsed in 1× Hank's Balanced Salt Solution (HBSS) with 10 μg/mL gentamicin and dissected into 8-27 mm^3 fragments using a forceps and scalpel. Duplicate wells of a G-Rex6M plate were filled with CTS OpTmizer media with 100 U/mL penicillin, 100 μg/mL streptomycin, and either 6,000 IU/mL recombinant IL-2, 3,000 U/mL recombinant IL-15+0.05 μg/mL anti-CD28, or 3,000 U/mL recombinant IL-15+0.5 μg/mL anti-CD28. Five tumor fragments, 8-27 mm^3 in size, per well were added to the G-Rex6M plate. The G-Rex6M plate was then placed in a 37° C., 5% CO2 incubator for 5 days.
On day 5, the G-Rex6M plate was removed from the incubator 20 mL of CTS OpTmizer media with 100 U/mL penicillin, […] streptomycin, and either 6,000 IU/mL of IL-2 or 3,000 U/mL IL-15 were added on top of the 20 mL of media in each of wells of the G-Rex6M plate. The G-Rex6M plate was returned to the 37° C., 5% CO2 incubator. On day 9, the G-Rex6M plate was removed from the incubator. 20 mL of culture media were removed from each well and 20 mL of CTS OpTmizer media with 100 U/mL penicillin, 100 μg/mIL streptomycin, and either 6,000 IU/mL of IL-2 or 3,000 U/mL IL-15 were added back. The G-Rex6M plate was returned to the 37° C., 5% CO2 incubator.
On day 13, the TILs were harvested and transferred to a 50 mL conical tube. The number and viability of the TILs was assessed using a NucleoCounter NC-200.

pSTAT5 (Tyr694) = assay: pSTAT5 expression in mbIL-2 and mbIL-7 TILs starved of rhIL-2 (FACS); type: cell-based, human; conditions: first 48 hours after cell processing, over control TILs
Method: Fresh post-REP TILs were collected from a 6-well G-Rex plate, centrifuged at 400 rcf at room temperature, and then washed and resuspended to 3-10M/mL in AIM V media without rhIL-2 to remove rhIL-2-dependent induction of pSTAT5 prior to squeeze processing. Cells were transferred to a T25 flask and cultured at 37° C. for 24 hr. Then, the cells were then prepared for squeeze-processing. The cells were counted, filtered through a 40-um cell strainer, washed, and the concentration was adjusted to 25M/mL by adding XVivo-15.
As shown above in Table 10, Group A was used as a control (i.e., not contacted with any payload and not squeeze processed). Group B was squeeze processed without any payload at room temperature using a microfluidic constriction (70 μm depth, 4.5 μm width, and 10 μm length) at 30 psi. Groups C-E were squeeze processed at room temperature with the payloads shown above, i.e., Group C: 500 μg/mL mbIL-2 mRNA; Group D: 350 μg/mL mbIL-7 mRNA; Group E: 500 μg/mL mbIL-2 mRNA+350 μg/mL mbIL-7 mRNA. Groups C-E were squeeze processed using the same conditions as in Group B (i.e., microfluidic constriction. 10 μm depth, 4.5 μm width, and 10 μm length; at 30 psi). […]
At 4, 24, 48 and 72 hrs, 200 ul of cells were aspirated and centrifuged at 400 rcf for 4 minutes at room temperature. […] The cells were then analyzed using an Attune Flow cytometer

TILs [3] = assay: Effect of cytokine (IL-2 or IL-15) during TIL expansion (colorectal tumor); type: cell-based
Method: To assess the effect of different cytokines (IL-2 or IL-15) during the initial TIL expansion and culturing, the following methods were used. Briefly, freshly resected colorectal tumor was rinsed in 1× Hank's Balanced Salt Solution (HBSS) with 10 µg/mL gentamicin and dissected into 8-27 mm^3 fragments using a forceps and scalpel. Duplicate wells of a G-Rex6M plate were filled with CTS OpTmizer media with 100 U/mL penicillin, 100 μg/mL streptomycin, and either 6,000 IU/mL recombinant IL-2, 500 U/mL recombinant IL-15, or 3,000 U/mL recombinant IL-15 Five tumor fragments, 8-27 mm^3 in size, per well were added to the G-Rex6M plate. The G-Rex6M plate was then placed in a 37° C., 5% CO2 incubator for 3 days.
On day 3, the G-Rex6M plate was removed from the incubator. 20 mL of CTS OpTmizer media with 100 U/mL penicillin, 100 μg/mL streptomycin, and either 6,000 IU/mL of IL-2, 500 U/mL IL-15, or 3,000 U/mL IL-15 were added on top of the 20 mL of media in each of wells of the G-Rex6M plate. The G-Rex6M plate was returned to the 37° C., 5% CO2 incubator. On day 7 and 10, the G-Rex6M plate was removed from the incubator. 20 mL of culture media were removed from each well and 20 mL of CTS OpTmizer media with 100 U/mL penicillin, 100 μg/mL streptomycin, and either 6,000 IU/mL of IL-2, 500 U/mL IL-15, or 3,000 U/mL IL-15 were added back. The G-Rex6M plate was returned to the 37° C., 5% CO2 incubator.
[…] The number and viability of the TILs was assessed using a NucleoCounter NC-200.

[4] = 6000 IU/mL IL-2, replicate wells

Substance	viability at various time points post-thaw ([1]; HSA 0% to 10% in formulation with 5% DMSO)	membrane-bound IL-2 and membrane-bound IL-12 expression post-thaw ([1]; HSA 0% to 10%, 4 hours post-thaw)	Cell Count on Day 13 (TILs [2]; [4])	Viability on Day 13 (TILs [2]; [4])	TIL expansion in culture (TILs [2]; melanoma tumor fragments)	pSTAT5 signal (pSTAT5 (Tyr694))	Cell Count on Day 13 (TILs [3]; [4])	Viability on Day 13 (TILs [3]; [4])	TIL expansion in culture (TILs [3]; colorectal tumor fragments)
HSA: human serum albumin in cryopreservation formulation	less HSA could result in improved viability	greatest membrane-bound IL-2 and membrane-bound IL-12 expression was observed with reduced HSA concentration	–	–	–	–	–	–	–
IL-2: recombinant (human) IL-2 added to culture media	–	–	1.06 × 10^6 and 5.22 × 10^7	97.6% and 94.4%	promote TIL expansion	increased pSTAT5 signal over control TILs	2.11 × 10^7 and 4.00 × 10^7	87.2% and 95.5%	promote TIL expansion
